Patent publication US20260384421A1, “NOVEL COMPOUNDS THAT CAN BE USED AS THERAPEUTIC AGENTS” (published 2026)

Key:
HPEKp cells = test: proliferation assay with human epidermal keratinocyte progenitors (HPEKp), selectivity versus MDA-MB-231
A-549 cells = test: alamarBlue proliferation assay with A-549 cells; conditions: read-out: Activity on A-549: IC50, DMEM medium, 10% FBS
MDA-MB-231 cells = test: alamarBlue proliferation assay with MDA-MB-231 cells (glucose-free Leibovitz's L-15 medium)
U-87 MG cells = test: alamarBlue proliferation assay with U-87 MG cells; conditions: read-out: Activity on U-87MG: IC50, EMEM medium, 10% FBS
Source text: (§1) These hyperproliferative processes can be benign or malignant and include hyperplasia, neoplasia, cancer and pre-cancerous lesions, and metastases. The antiproliferative activities of compounds falling under general formula (I) were investigated on human primary epidermal keratinocytes (HPEK) and human, murine and canine cell lines derived from hyperproliferative tissue or different cancer types, including MDA-MB-231, ZR-75-30, HCC-1395, HCC-1937, and T-47D all originating from cancer of the breast, JURKAT, RPMI-8402, LOUCY, TANQUE, REC-1, HL-60, NB-4 all originating from different types of blood cancer including lymphoma and leukemia of T-cells, B-cells and myeloid cells, TT originating from cancer of the neuroendocrine system, HeLa originating from cancer of the cervix, 23132/87, SW-948, and HCT-116 all originating from cancer of the gastrointestinal tract including stomach and colon, BHY originating from cancer of the mucosal epithelium, A-431 originating from cancer of the skin, HEP-G2 originating from cancer of the liver, NCI-H460 and A-549 both originating from cancer of the lung, PANC-1 originating from cancer of the pancreas, U-87 MG originating from cancer of the brain, A-375 and RVH-421 both originating from cancer of melanocytes, SW-1353 originating from cancer of bone-derived chondrocytes, C2C12 a mouse cell line originating from hyperproliferative muscle progenitor cells, LL/2 a mouse cell line originating from cancer of the lung, CF21.T a dog cell line originating from cancer of the connective tissue. To this end, according cells were seeded into 96-well plates (CORNING #3598) suitable for fluorescence assays at following initial cell numbers: 1000 cells per well for HPEK; 3000 cells per well for MDA-MB-231, 8000 cells per well for ZR-75-30, 1500 cells per well for HCC-1395, 1500 cells per well for HCC-1937, 3000 cells per well for T-47D, 1500 cells per well for JURKAT, 5000 cells per well for RPMI-8402, 9000 cells per well for LOUCY, 1500 cells per well for TANQUE, 9000 cells per well for REC-1, 1000 cells per well for HL-60, 1000 cells per well for NB-4, 9000 cells per well for TT, 2000 cells per well for HeLa, 2000 cells per well for 23132/87, 9000 cells per well for SW-948, 700 cells per well for HCT-116, 1500 cells per well for BHY, 700 cells per well for A-431, 1500 cells per well for HEP-G2, 500 cells per well for NCI-H460, 1000 cells per well for A-549, 1500 cells per well for PANC-1, 2500 cells per well for U-87 MG, 700 cells per well for A-375, 1500 cells per well for RVH-421, 2000 cells per well for SW-1353, 500 cells per well for C2C12, 500 cells per well for LL/2, and 3000 cells per well for CF21.T. In a volume of 90 μL per well of culture medium the cells were treated with compounds at indicated final concentrations by adding 10 μL per well of 10× compound working solutions from 1:100 pre-diluted 1000× compound DMSO stock-solutions in H2O (Water For Injection, WFI, Fisher Scientific, Gibco™ #A12873) or with the empty carrier DMSO (AppliChem, #A3672) at 0.1% v/v as control yielding a final volume of 100 μL per well. At day 5 after starting the treatments the cells were subjected to the alamarBlue® Proliferation Assay (Bio-Rad Serotec GmbH, BUF012B) according to the protocol of the manufacturer. The readout was taken with a multi-well plate-reader (Tecan Spark®) in the fluorescence mode with applying a filter for excitation at 560 nm (band width 10 nm) and for emission at 590 nm (band width 10 nm). Treatment for maximum proliferation inhibition with the commercial cytotoxic compound (S)-(+)-camptothecin (Fluorochem #M01564) at a concentration of 10 μM was included on each plate for assay quality control. Some of the test compounds of the present invention may have been obtained and applied as their salt forms.
(§2) The assays were performed in duplicate or more replicates of independent single experiments each containing a three- to six-fold replicate for every condition. […]

NCI-H460 cells = test: alamarBlue proliferation assay with NCI-H460 cells; conditions: read-out: Activity on NCI-H460: IC50, RPMI 1640 medium, 10% FBS
HL-60 cells = test: alamarBlue proliferation assay with HL-60 cells; conditions: read-out: Activity on HL-60: IC50, RPMI 1640 medium, 10% FBS
JURKAT cells = test: alamarBlue proliferation assay with JURKAT cells; conditions: read-out: Activity on JURKAT (IC50), day 5
RVH-421 cells = test: alamarBlue proliferation assay with RVH-421 cells (glucose-free L-15 medium); conditions: read-out: Activity on RVH-421: IC50, Leibovitz's L-15 medium, 10% FBS, 0% CO2
PANC-1 cells = test: alamarBlue proliferation assay with PANC-1 cells; conditions: read-out: Activity on PANC-1: IC50, DMEM medium, 10% FBS
Source text: as §1, §2

SW-1353 cells = test: alamarBlue proliferation assay with SW-1353 cells (glucose-free L-15 medium); conditions: read-out: Activity on SW-1353: IC50, Leibovitz's L-15 medium, 10% FBS, 0% CO2
SW-948 cells = test: alamarBlue proliferation assay with SW-948 cells (glucose-free L-15 medium); conditions: read-out: Activity on SW-948: IC50, Leibovitz's L-15 medium, 10% FBS, 0% CO2
HCC-1395 cells = test: alamarBlue proliferation assay with HCC-1395 cells; conditions: read-out: Activity on HCC-1395 (IC50), day 5
Source text: as §1, §2

HEP-G2 cells = test: alamarBlue proliferation assay with HEP-G2 cells; conditions: read-out: Activity on HEP-G2: IC50, RPMI 1640 medium, 10% FBS
A-431 cells = test: alamarBlue proliferation assay with A-431 cells; conditions: read-out: Activity on A-431: IC50, DMEM medium, 10% FBS
[1] = tested on: AMPK (Thr172 phosphorylation) in HEP-G2 cells; test: AMPK activation assay on HEP-G2 cells (Thr172 phosphorylation, western blot); conditions: 10 nM, 20 hours, Thr172 phosphorylation relative to DMSO control
Procedure: AMPK activation can be assessed by the levels of AMPK phosphorylation at Thr172. The APMK activating activities of compounds falling under general formula (I) were investigated by western blotting on different cancer cell lines. Access and cultivation of the respective cell lines are as described above. To this end, A-549, HEP-G2, and HCT-116 cells were seeded into 6-well culture plates (Cyto-One®, #CC7682-7506) in a total volume of 2 mL at a density to achieve 80% confluency by 48 hours and incubated over night at 37 °C and 5% CO2. Cells were treated at a confluency of around 50% with compounds at indicated final concentration by adding 2 μL per well of a 1000× compound DMSO stock-solution. Cells were incubated for 20 hours at 37 °C and 5% CO2. Then, cells were lysed in RIPA buffer (Pierce™ RIPA Buffer, FisherScientific, #89900) supplemented with 1× cOmplete™ Mini Protease Inhibitor Cocktail (Roche, #11836153001) and 1 mM Sodium Orthovanadate (Na3VO3, FisherScientific, #J60191) and lysates were subjected to standard western blotting procedure. Protein concentration of the samples was determined by BCA assay and samples were normalized to achieve equal protein concentration. 4× Laemmli Sample Buffer (Bio-Rad, #1610747) was supplemented with 200 μM DTT (Sigma Aldrich-Merck, #D9779) and added to the samples to achieve a final concentration of 1× Laemmli/50 μM DTT by diluting lysate samples with supplemented Laemmli buffer 1:4. Samples were then incubated at 95 °C for 5 min in a Thermomixer (Eppendorf). SDS-PAGE was performed in 1× Tris/Glycine/SDS buffer (TGS, Bio-Rad, #1610772) using 4-15% gradient polyacrylamide gels (4-15% Mini-PROTEAN® TGX Stain-Free™ Gel, Bio-Rad, #456-8084). Proteins were transferred onto 0.2 μm PVDF membranes using the semi-dry Trans-Blot® Turbo™ transfer system (Trans-Blot® Turbo™, Bio-Rad, #170-4150) with prepacked Trans-Blot® Turbo™ transfer packs (Bio-Rad, #170-4156). Immunodetection of AMPK, pAMPK (Thr172), and β-Actin was performed using the following primary antibodies: AMPKα (F6) Mouse mAb (Cell Signaling Technologies, #2793) for AMPK, Phospho-AMPKα (Thr172) (40H9) Rabbit mAb (Cell Signaling Technologies, #2535) for pAMPK (Thr172), and Purified anti-β-actin Antibody (Rat monoclonal, W16197A) (Cell Signaling Technologies, #664802) for β-Actin. HRP-linked secondary antibodies in 5% nonfat dried milk (AppliChem, #A0830) in 1×TBS containing 0.1% Tween-20 were used for the corresponding species mouse, rabbit and rat (Cell Signaling Technologies, #7076, #7074, #7077), respectively. Signals were developed with chemiluminescence substrate (SuperSignal™ West Pico PLUS, Fisher Scientific, #34577) and detected with the ChemiDoc™ MP imaging system (ChemiDoc™ MP, Bio-Rad, #12003154). Chemiluminescence signals of phosphorylation, total protein and loading control were quantified by densitometry using the image analysis software Image Lab™ (version 6.0.1, Bio-Rad). The corresponding lysates from DMSO treated cells were included on each membrane as the base line control for blot-internal signal normalization. The standard deviation of signal intensities of the loading control-Actin within each blot was 16% or lower confirming equal loading of protein amounts.
For each condition, the ratio of phosphorylation to corresponding total protein was calculated from the signal intensities. The ratios were then normalized to the corresponding ratio of the DMSO control to yield the fold-change values of phosphorylation.
In the following embodiments, a compound is considered as an AMPK activator if the fold-change value of phosphorylation is 1.5 or higher, preferably 2.0 or higher, and more preferably 2.5 or higher as determined with the method described above.

C2C12 cells = test: alamarBlue proliferation assay with C2C12 cells; conditions: read-out: Activity on C2C12: IC50; C2C12 murine myoblast cells, RPMI 1640 medium, 10% FBS
[2] = read-out: Activity (HPEK): antiproliferative activity on HPEK cells, IC50 category, HPEK cells cultivated in CnT-Prime medium
[3] = read-out: Activity (MDA): antiproliferative activity on MDA-MB-231 cells, IC50 category, MDA-MB-231 cells cultivated in glucose-free Leibovitz's L-15 medium
[4] = read-out: Activity on MDA-MB-231 (IC50), glucose-free Leibovitz's L-15, 10% FBS, day 5, alamarBlue

| Compound | IC50 (HPEKp cells; [2]) [µM] | IC50 (A-549 cells) [µM] | IC50 (MDA-MB-231 cells; [3]) [µM] | IC50 (MDA-MB-231 cells; [4]) [µM] | IC50 (U-87 MG cells) [µM] | IC50 (PANC-1 cells) [µM] | IC50 (SW-1353 cells) [µM] | IC50 (HCC-1395 cells) [µM] | IC50 (HEP-G2 cells) [µM] | IC50 (A-431 cells) [µM] | further results |
| --- | --- | --- | --- | --- | --- | --- | --- | --- | --- | --- | --- |
| Cc1cc(C(=O)N2CCN(Cc3ccccc3)CC2)ccc1Oc1ccc(C2CCC3(CC2)OCCO3)cc1CO | > 10 | ≤ 1 | < 1 | ≤ 1 | ≤ 5 | ≤ 5 | ≤ 1 | – | – | – | IC50 (NCI-H460 cells): ≤ 20 µM; IC50 (HL-60 cells): ≤ 5 µM; IC50 (JURKAT cells): ≤ 20 µM; IC50 (RVH-421 cells): ≤ 1 µM; IC50 (SW-948 cells): ≤ 5 µM |
| COc1ccc(CN2CCN(C(=O)c3ccc(Oc4ccc(C5CCC6(CC5)OCCO6)cc4C=O)cc3)CC2)cc1 | – | – | – | ≤ 0.2 | – | – | – | ≤ 5 | ≤ 0.2 | ≤ 0.2 | – |
| O=Cc1cc(C2CCC3(CC2)OCCO3)ccc1Oc1ccc(C(=O)N2CCN(Cc3cccc4cccnc34)CC2)cc1 | – | – | – | ≤ 0.2 | – | – | – | ≤ 20 | ≤ 5 | ≤ 5 | – |
| O=Cc1cc(C2CCC3(CC2)OCCO3)ccc1Oc1ccc(C(=O)N2CCN(Cc3ccc4ccccc4c3)CC2)cc1 | < 5 | – | < 1 | ≤ 0.2 | – | – | – | – | ≤ 0.2 | ≤ 0.2 | Fold-change AMPK activation [1]: ≥1.5 |
| O=Cc1cc(C2CCC3(CC2)OCCO3)ccc1Oc1ccc(C(=O)N2CCN(Cc3cccnc3)CC2)cc1 | – | – | – | ≤ 1 | – | – | – | ≤ 5 | ≤ 5 | ≤ 5 | – |
| O=Cc1cc(C2CCC3(CC2)OCCO3)ccc1Oc1ccc(C(=O)N2CCN(CC3CCCC3)CC2)cc1 | – | – | – | ≤ 5 | – | – | – | ≤ 20 | ≤ 20 | ≤ 5 | – |
| COc1cc(C2CCCCC2)cc(C=O)c1Oc1ccc(C(=O)N2CCN(Cc3ccccc3)CC2)cc1 | – | – | – | ≤ 5 | – | – | – | ≤ 20 | ≤ 20 | ≤ 20 | – |
| O=C(c1ccc(Oc2ccc(C3CCC4(CC3)OCCO4)cc2CO)cc1)N1CCN(Cc2cccnc2)CC1 | < 10 | ≤ 1 | < 1 | ≤ 1 | ≤ 20 | ≤ 20 | ≤ 1 | – | ≤ 5 | ≤ 1 | – |
| O=C(c1ccc(Oc2ccc(C3CCC4(CC3)OCCO4)cc2CO)cc1)N1CC2(CN(Cc3ccc(Cl)cc3)C2)C1 | – | ≤ 5 | – | ≤ 1 | ≤ 20 | ≤ 20 | ≤ 5 | – | – | – | IC50 (HPEKp cells; read-out: Activity (HPEK), HPEK cells (HPEKp), antiproliferative activity, class by IC50): < 10 µM; IC50 (MDA-MB-231 cells; read-out: Activity (MDA), MDA-MB-231 cells, antiproliferative activity, class by IC50): < 1 µM |
| O=C(c1ccc(Oc2ccc(C3CCC4(CC3)SCCS4)cc2CO)cc1)N1CCN(Cc2ccccc2)CC1 | < 5 | ≤ 5 | < 1 | ≤ 0.2 | ≤ 5 | ≤ 20 | ≤ 0.2 | – | – | – | IC50 (C2C12 cells): ≤ 20 µM |

Like-named read-outs stand apart in the source and are kept apart here.
